An excerpt weighted towards active compounds, which were near 4.2% of everything screened.
NALP1 inh – blocks the NALP1 inflammasome reconstituted in yeast. hit rate 0.61% among 280,000. inhibition, % at 10 µM. S. cerevisiae NALP1/ASC/caspase-1 growth, X-gal OD620, 72 h; in the data active = inhibition mostly above about 24%, no sharp cut-off; inactive = mostly below about 32%
ALR H2O2 inh – inhibitors of human sulfhydryl oxidase ALR; inhibition, % (no concentration beside the values); AID 485317; purified ALR, DTT oxidation, H2O2 HRP-luminol luminescence; 290,000 tested, 3.8% active; P55789;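 active means mean and each replicate at 75% or more; inconclusive means only one of the two met; inactive means neither met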;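 further: stock transfer was 7.5 nL into about 7.5 µL; 0% = neutral wells and 100% = wells with inactivated enzyme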
Yeast UUG start – alters start codon recognition fidelity in yeast. S. cerevisiae UUG-firefly luciferase reporter, luminescence/redox ratio. 350,000 tested, 0.13% active. activity score, % at 18.7 µM. AID 602363;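 active means replicate mean at a twofold rise or more, about +100% in these data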;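 further: firefly luciferase made from a UUG start codon reports start codon fidelity; reporter light over untreated wells divided by growth signal over untreated wells; some hits fall short of that in this replicate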
HDAC3 inhib – human HDAC3 inhibition; O15379; recombinant HDAC3, fluorogenic peptide/trypsin coupled, fluorescence; inhibition, % at 8.3 µM; hit rate 0.15% among 320,000; AID 2718; in the data active = inhibition above about 26%, passing the limit was not always enough; inconclusive = no clear call, values can overlap the other calls
MC4R ag barr – agonists of human melanocortin 4 receptor (MC4R) beta-arrestin; U2OS MC4R beta-arrestin complementation, luminescence; percent of melanotan II response, DMSO zero; hit rate 0.98% among 360,000; AID 540308; P32245; activation, % at 8.9 µM;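 active = activation above a per-plate cutoff, the mean activation of sample wells on that plate plus 3 SD, cut at about 8% in these data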
MC4R antagonist – blocks human MC4R cAMP signaling | MC4R-expressing cells, MTII-stimulated cAMP, LANCE TR-FRET | inhibition, % at 6.5 µM | hit rate 0.48% among 360,000 | AID 540295;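 active = inhibition above its plate's cutoff, the mean of tested wells on that plate plus 3 SD, cut at about 29% in these data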;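 also: 0% = Melanotan II alone and 100% = Melanotan II plus saturating MCL0020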
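Material: U2OS-MC4R stable cell line | Reagent: Melanotan II challenge after compound preincubation | Doses: One concentration, 6.5 µM nominal | Incubation: 30-min compound preincubation, 1-h Melanotan II challenge, 1-h detection, room temperature | Signal: TR-FRET cAMP assay | Replicates: One well per compound, no replicates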
Starred values were filed as active, the others as inactive; ? = inconclusive; nt = no result.

SMILES	NALP1 inh	ALR H2O2 inh	Yeast UUG start	HDAC3 inhib	MC4R ag barr	MC4R antagonist
O=C(O)/C(=C\c1ccc(Cl)cc1)c1ccc(S(=O)(=O)N2CCCC2)s1	nt	97.6*	-3.3	8.2	1.0	0.9
C[C@@H]1CN([C@@H](C)CO)S(=O)(=O)c2ccc(-c3ccncc3)cc2O[C@H]1CN(C)C(=O)CN(C)C	nt	nt	-0.1	nt	nt	nt
O=C(NCCc1ccccc1)[C@H]1N[C@H]2c3ccc(-c4ccccc4)c(=O)n3C[C@H]2[C@@H]1CO	nt	nt	-4.0	nt	nt	nt
Cn1c(-c2ccc3c(c2)OCO3)cnc1NCc1cccc(O)c1	-6.8	87.8*	nt	-1.5	-2.6	-5.8
Cn1c(-c2ccc(F)cc2)cnc1NCc1cc2c(cc1[N+](=O)[O-])OCO2	27.0	92.6*	5.4	3.4	-2.1	3.3
Cn1c(-c2ccccc2)cnc1NCc1cc2c(cc1[N+](=O)[O-])OCO2	-2.7	97.7*	-15.8	-2.6	-0.8	-0.8
Cn1c(-c2ccc(Cl)cc2)cnc1NCc1cc2c(cc1[N+](=O)[O-])OCO2	40.0	25.8	-15.3	0.2	-2.8	7.9
C[C@H](CO)N1C[C@H](C)[C@H](CN(C)C)Oc2ccc(NC(=O)NC3CCCCC3)cc2CC1=O	nt	nt	1.6	nt	nt	nt
C/C=C/c1cnc2c(c1)C(=O)N([C@H](C)CO)C[C@@H](C)[C@@H](CN(C)C(=O)C1CC1)O2	nt	nt	-11.4	nt	nt	nt
Cc1ccc([N+](=O)[O-])cc1NC(=O)CNC1CCCCC1	4.6	nt	-8.8	-0.5	0.8	5.5
O=C(CNC1CCCC1)Nc1cc(Cl)ccc1[N+](=O)[O-]	44.8*	-11.4	-10.5	-2.8	3.0	-4.2
CN(C)CC#Cc1ccc([C@H]2[C@@H](CO)N3CCCCN(C(=O)C4CC4)C[C@H]23)cc1	nt	nt	7.8	nt	nt	nt
N#C/C(=C/c1ccc(F)cc1)S(=O)(=O)c1ccccc1	10.1	-18.6	-7.3	-2.6	-3.2	1.5
Cc1[nH]c2ccccc2c1/C=C(\C#N)S(=O)(=O)c1ccccc1	-12.0	97.2*	4.2	-6.5	-2.3	3.6
N#C/C(=C\c1ccc(O)c(O)c1)S(=O)(=O)c1ccccc1	-7.8	98.9*	-9.1	?	-3.0	-0.5
O=C(C[C@@H]1CC[C@@H]2[C@H](COC[C@H](O)CN2Cc2ccccc2F)O1)N[C@H]1CCN(Cc2ccccc2)C1	nt	nt	0.4	nt	nt	nt
COc1ccc(NC(=O)N(C)C[C@H]2OCCCC[C@H](C)Oc3ccc(NS(=O)(=O)c4ccc(Cl)cc4)cc3C(=O)N([C@@H](C)CO)C[C@@H]2C)cc1	nt	nt	3.3	nt	nt	nt
COc1ccc(S(=O)(=O)n2nc(OC(=O)c3cccs3)cc2NC(=O)c2cccs2)cc1	-0.2	-4.0	-2.4	46.3*	-1.7	8.1
Nc1cc(OC(=O)c2cccs2)nn1S(=O)(=O)c1ccc(F)cc1	13.6	12.3	-9.0	70.0*	-0.8	-3.9
COc1ccc(C(=O)Oc2cc(N)n(S(=O)(=O)c3ccccc3)n2)cc1	-8.8	-2.5	nt	?	-0.5	12.3
Cc1ccc(C(=O)Oc2cc(N)n(S(=O)(=O)c3ccc(F)cc3)n2)cc1	-2.2	1.0	-14.5	-2.2	1.6	9.4
Nc1cc(OC(=O)c2cccs2)nn1S(=O)(=O)c1ccccc1	26.6	-5.8	-18.8	95.8*	-1.4	6.6
CO[C@H]1CN(C)C(=O)c2cc(NS(=O)(=O)CC(F)(F)F)ccc2OC[C@H](C)N(Cc2cccnc2)C[C@H]1C	nt	nt	-12.6	nt	nt	nt
COc1ccc(NC(=O)N(C)C[C@@H]2Oc3ncc(-c4cccnc4)cc3C(=O)N([C@@H](C)CO)C[C@@H]2C)cc1	nt	nt	-0.3	nt	nt	nt
OCCN1CCN(c2ncnc3ccc(Br)cc23)CC1	32.2*	nt	-2.5	nt	0.8	-2.4
Cn1cnc(S(=O)(=O)N2C[C@@H](O)COC[C@H]3O[C@@H](CC(=O)NCc4cc(F)cc(F)c4)CC[C@@H]32)c1	nt	nt	-0.7	nt	nt	nt
O=C(OCn1ncc(Cl)c(Cl)c1=O)c1cccc(C(F)(F)F)c1	-5.9	97.1*	-17.5	-2.3	3.6	21.6
Cc1c(Br)c(=O)oc2c(Br)c(O)c(O)cc12	13.7	98.3*	nt	-11.7	-1.9	7.1
Cc1c(Br)c(=O)oc2c(Br)c(O)ccc12	1.8	7.9	-6.1	-87.0	-0.6	10.6
O=C(c1cccc2nccnc12)N1CCCC(Nc2ccc(F)c(F)c2)C1 (stereo not given)	13.7	7.0	-0.1	2.0	-1.1	0.5

2 entries from above in a different format:
Molecule | NALP1 inh | ALR H2O2 inh | Yeast UUG start | HDAC3 inhib | MC4R ag barr | MC4R antagonist
O=C(NCCc1ccccc1)[C@H]1N[C@H]2c3ccc(-c4ccccc4)c(=O)n3C[C@H]2[C@@H]1CO | nt | nt | -4.0 | nt | nt | nt
Cc1ccc(C(=O)Oc2cc(N)n(S(=O)(=O)c3ccc(F)cc3)n2)cc1 | -2.2 | 1.0 | -14.5 | -2.2 | 1.6 | 9.4

Quoted from the listing:
ALR H2O2 inh, `Cc1c(Br)c(=O)oc2c(Br)c(O)c(O)cc12` reads 98.3*
Yeast UUG start, `C/C=C/c1cnc2c(c1)C(=O)N([C@H](C)CO)C[C@@H](C)[C@@H](CN(C)C(=O)C1CC1)O2` reads -11.4
